This is an account of results in US6042822A, “Interferon polymer conjugates” (Enzon, Inc., priority 1999, dated 2000).

For orientation: IC50 means the concentration that inhibits the measured activity by half. A higher IC50 goes with weaker potency in that assay.

Series [1] concerns EMC virus challenging A549 human lung carcinoma cells. Briefly: CPE assay / viral protection assay. The series is classed as cell-based. The conditions noted are these: for VIRAL PROTECTION ASSAY IC50 / ACTIVITY (%): Table 2; for ACTIVITY (%): CPE assay, EMC virus, A549 cells; for CPE ACTIVITY (% CONTROL): Table 3, retained activity; for % ACTIVITY / IC50: Table 5; for IC50: N = 3 (native IFNα N = 6); for ACTIVITY (CPE) % OF CONTROL: Table 1, IFN-PEG12,000, no surfactant. How it is done:
In these examples, additional preparations of PEG12,000 -rαIFN were prepared as described previously except that no surfactant was used. Following the conjugation reactions, the samples were tested for retained activity and PEG number.
(§1) In this example, the product of Example 3, (SDS-2-PEG-5,000 rαIFN), 2-PEG5,000 rαIFN made in the absence of a surfactant and unconjugated rαIFN were tested. Activity was determined using a CPE assay with EMC virus challenging A549 human lung carcinoma cells. Circulating life was determined using an average value obtained from the blood of 3 rats in a group receiving 1 million units, with time points taken over 7 days.
ASSAY: CPE Assay using serum samples in an EMC virus and
A549 human lung carcinoma.

A short description of series [2]: Circulating half life in rats (Example 9). The series is classed as in vivo, rat. Particulars: 3 rats, 1 million units, time points over 7 days. How it is done:
as §1

A short description of series [3]: Hydroxylamine sensitivity (conjugate converted to IFN). The series is classed as physicochemical. Particulars: conjugation at higher pH.
Series [4] is described as follows: Specific activity (MTT-CPE assay). The series is classed as cell-based. Particulars: conjugation at higher pH. How it is done:
The purified conjugates obtained at the different pHs were evaluated for their biological activity, hydroxylamine sensitivity and distribution of positional isomers. Biological activity was determined by specific activity (MTT-CPE assay).
Table 7 summarizes the specific bioactivity as determined using the MTT-CPE bioassay for IFN and the amount of IFN released upon treatment with 0.5M hydroxylamine for 2 hours at 25° C. for the different conjugate products. These findings confirm that the differences seen in FIG. 1 can also be related to different biological characteristics of the products.

The nature of series [5]: Pharmacokinetics after subcutaneous administration (Table 4 protocol). The series is classed as in vivo. The conditions noted are these: Sprague Dawley rat, s.c., 10 × 10^6 UN IFN/rat, serum.

Consider “Example 3: 2-PEG5,000 rαIFN fraction of the conjugate prepared with SDS”, for which, in series [1], the “VIRAL PROTECTION ASSAY IC50” value was found to be 0.0022 ng/mL, the “ACTIVITY (%)” value is 69%, the “CPE ACTIVITY (% CONTROL)” value turned out to be 69% and the “% ACTIVITY” value is listed as 69%. This substance also gave an IC50 in series [1] of 0.0022 ± 0.0005 ng/mL. The “CIRCULATING HALF LIFE α PHASE” value in series [2] was 5.8 h.
Take “Example 8: PEG12,000-rαIFN prepared without surfactant; PEG # 1.0”: the “ACTIVITY (CPE) % OF CONTROL” value in series [1] came out at 24%. Also, the “hydroxylamine resistance in words” value in series [3] is given as “more resistant to hydroxylamine”. For the same substance, in series [4], the bioactivity in words result is given as “less bioactive”.
As for “Example 7: PEG12,000-rαIFN prepared without surfactant; PEG # 1.3”, the “ACTIVITY (CPE) % OF CONTROL” value in series [1] is listed as 26%.
For the substance “IFN-PEG5,000: 2-PEG5,000 rαIFN made in the absence of a surfactant”, in series [1], the “VIRAL PROTECTION ASSAY IC50” value was determined as 0.004 ng/mL, the “ACTIVITY (%)” value was found to be 30%, the “CPE ACTIVITY (% CONTROL)” value worked out at 35% and the “% ACTIVITY” value amounted to 35%. The substance further registered an IC50 in series [1] of 0.004 ng/mL. Further, the “CIRCULATING HALF LIFE α PHASE” value in series [2] was 6.8 h.
Turning to “Example 6: PEG12,000-rαIFN prepared without surfactant; PEG # 1.2”, the “ACTIVITY (CPE) % OF CONTROL” value in series [1] was 26%.
As to “NATIVE IFNα: unconjugated recombinant αIFN-2b (rαIFN), a product of the Schering-Plough Corporation”, in series [5], the Cmax is 60,000 IU/ml and the “T1/2 α PHASE” value came out at 0.17 h. Also, in series [1], the “VIRAL PROTECTION ASSAY IC50” value was determined as 0.0015 ng/mL, the “ACTIVITY (%)” value is recorded as 100%, the “% ACTIVITY” value was determined as 100% and the IC50 amounted to 0.00152 ng/mL. For the same substance, the “CIRCULATING HALF LIFE α PHASE” value in series [2] came out at 0.17 h.
Take “D: 2PEG-rαIFN conjugate, PEG molecular weight 12,000”: the “CPE ACTIVITY (% CONTROL)” value in series [1] amounted to 26%.
For “C: 2PEG-rαIFN conjugate, PEG molecular weight 12,000”, in series [1], the “CPE ACTIVITY (% CONTROL)” value came to 26%, the “% ACTIVITY” value was found to be 26% and the IC50 turned out to be 0.0058 ± 0.0022 ng/mL.
